Literature values, collected in patent US10668052B2, “Combinations of isomers of dihydrotetrabenazine” (ADEPTIO PHARMACEUTICALS LIMITED, priority 2017, dated 2020).

Chains of the proteins cited; added tags and fusions are not shown.
UniProt Q01827, whole entry: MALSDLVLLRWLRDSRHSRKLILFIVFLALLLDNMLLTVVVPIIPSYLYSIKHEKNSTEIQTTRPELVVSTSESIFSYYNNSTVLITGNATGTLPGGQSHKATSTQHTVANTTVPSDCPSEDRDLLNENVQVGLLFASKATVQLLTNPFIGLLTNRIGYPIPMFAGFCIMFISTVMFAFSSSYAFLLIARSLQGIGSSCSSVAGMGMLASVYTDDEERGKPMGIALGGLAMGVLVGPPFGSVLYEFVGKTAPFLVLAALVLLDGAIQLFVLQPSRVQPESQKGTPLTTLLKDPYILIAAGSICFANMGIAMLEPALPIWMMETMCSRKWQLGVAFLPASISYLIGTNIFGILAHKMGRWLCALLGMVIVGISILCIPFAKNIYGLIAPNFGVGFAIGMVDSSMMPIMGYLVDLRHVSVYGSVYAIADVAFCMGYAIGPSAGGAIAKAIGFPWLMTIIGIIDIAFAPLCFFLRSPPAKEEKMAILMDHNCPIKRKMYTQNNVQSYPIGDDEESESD

Biological target: VMAT2 (Rattus norvegicus, UniProt Q01827)
Settings: cited from earlier work; for activity as a VMAT2 binding agent: source not given

| Structure (SMILES) | VMAT2 binding activity (all eight dihydrotetrabenazine isomers, Sun et al.) | activity as a VMAT2 binding agent |
| --- | --- | --- |
| COc1cc2c(cc1OC)[C@H]1C[C@@H](O)[C@H](CC(C)C)CN1CC2 [(+)-α-DHTBZ, (2R,3R,11bR)-3-isobutyl-9,10-dimethoxy-1,3,4,6,7,11b-hexahydro-2H-pyrido[2,1,a]isoquinolin-2-ol] | most active |  |
| COc1cc2c(cc1OC)[C@@H]1C[C@H](O)[C@@H](CC(C)C)CN1CC2 [(−)-α-DHTBZ, (2S,3S,11bS)-3-isobutyl-9,10-dimethoxy-1,3,4,6,7,11b-hexahydro-2H-pyrido[2,1,a]isoquinolin-2-ol] |  | essentially active |
| COc1cc2c(cc1OC)[C@H]1C[C@H](O)[C@H](CC(C)C)CN1CC2 [(+)-β-DHTBZ, (2S,3R,11bR)-3-isobutyl-9,10-dimethoxy-1,3,4,6,7,11b-hexahydro-2H-pyrido[2,1,a]isoquinolin-2-ol] |  | significantly less active than the (+)-α-dihydrotetrabenazine isomer |
